{"source": "paper PMC4964800", "about": "(Bioorganic & medicinal chemistry letters, 2016)", "test_system": "STAT1", "test": "IFN-γ-induced STAT1 pathway activation assay", "format": "cell-based", "settings": "read-out: STAT1 IC50"}
{"smiles": "COc1ccc(C2=Nn3c(nnc3-c3cc(-c4ccc(Cl)cc4)n[nH]3)SC2C)cc1", "note": "(stereo not shown) [Compound 22]", "values": [{"measurement": "IC50", "result": 29.5, "unit": "µM"}]}
